Laboratory results reported in patent publication EP4556465A1, “NOVEL BICYCLIC PD-L1 INHIBITORS, PREPARATION METHODS THEREFOR AND MEDICINAL USES THEREOF” (priority 2022, dated 2024).

Tested on: breast cancer tumor cells 4T1
Details: 10 mg/kg, i.g., QD×21 days
Protocol: Subsequently, each group of animals was dosed, and the day of first administration was defined as test day 1; • Administration frequency: once a day; • General state observations: observation time and frequency: once a day; observation indicators or content: including, but not limited to, local administration of the animals, appearance signs, general behavioral activity, mental status, death, and other abnormal manifestations. The animals were euthanized at the end of the test. • Calculation of tumor volume: V=1/2×long diameter×short diameter^2 (mm^3).

O=C(O)CN1CCc2nc(OCc3cccc(-c4ccccc4F)c3Cl)ccc2C1 [I-D-26, 2-(2-((2-chloro-2'-fluoro-[1,1'-biphenyl]-3-yl)methoxy)-7,8-dihydro-1,6-naphthyridin-6(5H)-yl)acetic acid]
general state of tumor-bearing animals during administration (water and food intake, activity, body weight, toxicity): normal water intake and food intake, normal activity, normal body weight, and no toxicity manifestations
